Laboratory results: patent US20180296537A1, “METHODS AND COMPOSITIONS FOR DIAGNOSING, TREATING, AND MONITORING TREATMENT OF SHANK3 DEFICIENCY ASSOCIATED DISORDERS” (Novartis AG, priority 2015, published 2018)

System: Akt
Assay: Western blot of Akt phosphorylation in rat primary cortical neurons (Shank3 knock down vs control)
Format: cell-based
Settings: pre-treatment with Akti
Text: E18 primary rat cortical neurons were dissected, cultured and infected 6 days after plating (DIV6) with indicated lentiviruses at MOI 10, as previously described (Proenca et al., 2013). Lentiviruses were produced by calcium phosphate transfection of HEK293T cells with packaging plasmids (Life Technologies) and transfer plasmid in 10 cm dishes. Cells were transferred to fresh medium 6 hrs. post-transfection. Four days post-transfection, the cell medium was collected and pooled from several dishes, cleared of cellular debris by 0.45 μm filtration, and concentrated 100× by centrifugation at 19,000 g for 90 min in a Beckman Ultracentrifuge using a SW28/SW32 rotor. Pellets were suspended in PBS/0.5% BSA and viral titer was determined by ELISA quantification of viral p24 antigen (Zeptometrix Corp, USA). For shRNA plasmid generation, oligonucleotides were annealed and ligated into lentiviral transfer plasmid pLKO.1-GFP vector at the AgeI/EcoRI sites. The target sequences of shRNAs that target rat and mouse Shank3 (5′-3′) are: […] […] (SEQ ID NO: 2), and […] (SEQ ID NO: 3). The latter was previously reported (Verpelli et al., 2011). A luciferase-targeting sequence was used as an shRNA control: […] (SEQ ID NO: 4). […]

SMILES: O=c1[nH]c2ccccc2n1C1CCN(Cc2ccc(-c3nc4cc5[nH]cnc5cc4nc3-c3ccccc3)cc2)CC1 [Akti]
- BDNF-induced Akt phosphorylation: blocked BDNF-induced Akt phosphorylation in primary neurons
